For orientation: IC50 means the concentration needed to halve the response being measured.

The chains behind the UniProt entries cited, without tags or fusion partners.
UniProt O14965, whole entry: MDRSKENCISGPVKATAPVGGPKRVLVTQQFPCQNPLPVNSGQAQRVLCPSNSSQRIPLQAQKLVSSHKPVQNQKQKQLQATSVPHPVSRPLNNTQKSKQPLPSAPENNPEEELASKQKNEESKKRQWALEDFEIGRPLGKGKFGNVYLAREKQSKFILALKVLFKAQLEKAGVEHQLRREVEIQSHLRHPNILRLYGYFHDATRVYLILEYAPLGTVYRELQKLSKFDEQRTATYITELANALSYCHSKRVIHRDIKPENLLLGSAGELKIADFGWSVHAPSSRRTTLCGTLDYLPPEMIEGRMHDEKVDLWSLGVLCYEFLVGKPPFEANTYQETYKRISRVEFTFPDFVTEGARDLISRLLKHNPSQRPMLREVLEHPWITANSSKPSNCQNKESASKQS

The assay deals with GST-Aurora A (Homo sapiens, UniProt O14965). The assay is described as follows: Aurora A kinase biochemical mobility shift assay (Caliper LC3000 / Desktop Profiler). The conditions noted are these: read-out: IC50 (AK); AK A (Aurora kinase A) inhibition. As for the experimental part: The Aurora assays described here are performed on two Caliper Life Sciences systems: the LC3000 and the Desktop Profiler. The RON kinase assays are performed on the Desktop Profiler only. These provide data on enzyme activity via measurement of the relative amounts of phosphorylated or unphosphorylated fluorescently labelled substrate peptide at the end of an enzymatic reaction. These different states of peptide are resolved by applying a potential difference across the sample. The presence of the charged phosphate group on the product (as opposed to the substrate) causes a different peptide mobility between the two peptides. This is visualized by excitation of the fluorescent label on the substrate and product peptides and represented as peaks within the analysis software. […]
The plate is read on a Caliper LC3000 in an Off-Chip mobility shift assay format, using the following parameters for a 12-sipper chip: screening pressure −1.8 psi, upstream voltage −2700, downstream voltage −1000. […] The percent conversion can be plotted against concentration of inhibitor to produce a sigmoidal dose response curve, from which an IC50 can be calculated using XLFit for Microsoft Excel. […]
Reading of the plate in the Profiler is identical to the LC3000, and the ratio between substrate and product peaks provides the activity of the enzyme in that well. […]

Regarding `Cn1ccc(N2Cc3c(Nc4ccc(NC(=O)c5ccc(F)cc5C(F)(F)F)cc4)ccnc3NC2=O)n1`, the IC50 was 10 to 100 nM. Take `Cn1ccc(N2Cc3c(Nc4ccc(NC(=O)c5ccccc5)cc4)ccnc3NC2=O)n1`: the IC50 was in the range of 10 to 100 nM.

The record behind these values is patent US8569295B2, “Bicyclic urea compounds” (Merck Patent GmbH, priority 2009, dated 2013).
